From BindingDB's records for doi:10.1016/0028-3908(94)90059-0 (University of Alberta, 1994)
Several values for one entry are separate records, joined by “and”; a condition that tells them apart may be missing. Identical values can stand only once.

Amino acid sequences for entries named in this document (tags omitted).
UniProt P08908, whole entry: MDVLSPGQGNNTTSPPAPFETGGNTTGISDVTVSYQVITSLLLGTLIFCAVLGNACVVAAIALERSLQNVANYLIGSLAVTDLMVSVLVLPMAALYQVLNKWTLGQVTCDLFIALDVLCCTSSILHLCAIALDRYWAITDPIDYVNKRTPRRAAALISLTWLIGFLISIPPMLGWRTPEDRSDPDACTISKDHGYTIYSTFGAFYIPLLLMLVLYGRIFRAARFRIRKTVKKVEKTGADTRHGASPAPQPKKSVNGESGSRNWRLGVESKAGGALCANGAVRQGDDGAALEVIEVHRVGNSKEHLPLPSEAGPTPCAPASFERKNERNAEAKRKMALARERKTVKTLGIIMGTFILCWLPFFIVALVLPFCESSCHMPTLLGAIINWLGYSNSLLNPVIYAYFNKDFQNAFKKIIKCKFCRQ
UniProt P30994, whole entry: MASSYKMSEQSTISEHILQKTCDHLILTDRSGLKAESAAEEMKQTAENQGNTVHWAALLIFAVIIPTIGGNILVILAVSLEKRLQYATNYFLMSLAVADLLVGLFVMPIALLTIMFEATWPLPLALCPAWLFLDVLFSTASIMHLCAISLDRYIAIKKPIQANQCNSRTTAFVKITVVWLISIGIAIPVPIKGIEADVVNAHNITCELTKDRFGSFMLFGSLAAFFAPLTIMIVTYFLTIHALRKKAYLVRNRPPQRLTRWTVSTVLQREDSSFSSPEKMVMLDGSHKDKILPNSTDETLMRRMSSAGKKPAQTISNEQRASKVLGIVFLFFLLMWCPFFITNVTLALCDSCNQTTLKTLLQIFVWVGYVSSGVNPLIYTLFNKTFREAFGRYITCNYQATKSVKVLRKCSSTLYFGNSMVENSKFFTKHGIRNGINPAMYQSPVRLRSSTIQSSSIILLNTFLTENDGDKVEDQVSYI
UniProt P11614, whole entry: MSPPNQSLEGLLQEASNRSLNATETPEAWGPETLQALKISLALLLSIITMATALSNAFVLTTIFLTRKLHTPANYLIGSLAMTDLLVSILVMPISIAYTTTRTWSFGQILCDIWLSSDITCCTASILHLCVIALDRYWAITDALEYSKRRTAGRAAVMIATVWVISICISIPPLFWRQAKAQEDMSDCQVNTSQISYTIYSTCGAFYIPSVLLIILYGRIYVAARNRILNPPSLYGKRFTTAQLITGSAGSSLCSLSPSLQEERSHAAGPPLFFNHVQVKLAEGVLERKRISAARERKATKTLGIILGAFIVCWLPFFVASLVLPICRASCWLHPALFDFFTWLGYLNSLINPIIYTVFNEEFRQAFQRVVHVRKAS
UniProt P31388, whole entry: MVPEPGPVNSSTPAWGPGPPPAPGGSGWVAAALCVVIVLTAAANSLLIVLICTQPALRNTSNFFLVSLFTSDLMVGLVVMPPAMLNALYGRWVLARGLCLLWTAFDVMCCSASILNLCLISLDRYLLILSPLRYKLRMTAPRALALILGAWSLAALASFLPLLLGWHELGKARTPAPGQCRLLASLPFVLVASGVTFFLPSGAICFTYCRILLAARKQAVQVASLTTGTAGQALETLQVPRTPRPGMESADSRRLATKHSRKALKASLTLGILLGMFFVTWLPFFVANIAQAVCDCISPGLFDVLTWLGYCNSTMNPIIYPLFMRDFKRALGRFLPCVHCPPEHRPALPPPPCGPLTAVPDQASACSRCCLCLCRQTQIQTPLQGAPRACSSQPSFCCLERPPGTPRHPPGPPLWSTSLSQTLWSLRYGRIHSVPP
UniProt P35365, whole entry: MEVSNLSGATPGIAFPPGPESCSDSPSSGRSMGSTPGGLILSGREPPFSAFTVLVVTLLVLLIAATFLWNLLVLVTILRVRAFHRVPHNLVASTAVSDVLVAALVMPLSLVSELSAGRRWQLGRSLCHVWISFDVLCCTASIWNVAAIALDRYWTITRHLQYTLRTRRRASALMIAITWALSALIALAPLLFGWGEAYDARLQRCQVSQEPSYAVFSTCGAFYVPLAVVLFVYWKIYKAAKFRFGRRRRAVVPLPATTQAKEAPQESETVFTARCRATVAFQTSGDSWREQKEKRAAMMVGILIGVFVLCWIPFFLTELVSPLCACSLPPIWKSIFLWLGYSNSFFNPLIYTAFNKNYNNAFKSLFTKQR
UniProt P14842, whole entry: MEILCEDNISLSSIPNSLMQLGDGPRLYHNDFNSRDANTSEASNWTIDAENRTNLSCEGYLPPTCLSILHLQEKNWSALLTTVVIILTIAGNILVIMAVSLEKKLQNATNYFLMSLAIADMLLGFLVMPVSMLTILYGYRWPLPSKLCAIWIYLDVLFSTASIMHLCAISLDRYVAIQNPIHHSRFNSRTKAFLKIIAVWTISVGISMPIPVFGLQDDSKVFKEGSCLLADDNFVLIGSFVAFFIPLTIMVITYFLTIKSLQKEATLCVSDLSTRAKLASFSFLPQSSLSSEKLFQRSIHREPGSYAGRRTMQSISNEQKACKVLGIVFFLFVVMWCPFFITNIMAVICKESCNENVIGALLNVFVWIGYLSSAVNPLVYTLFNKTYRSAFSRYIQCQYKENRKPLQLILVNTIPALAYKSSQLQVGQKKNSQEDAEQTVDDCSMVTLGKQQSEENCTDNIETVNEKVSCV
UniProt P32305, whole entry: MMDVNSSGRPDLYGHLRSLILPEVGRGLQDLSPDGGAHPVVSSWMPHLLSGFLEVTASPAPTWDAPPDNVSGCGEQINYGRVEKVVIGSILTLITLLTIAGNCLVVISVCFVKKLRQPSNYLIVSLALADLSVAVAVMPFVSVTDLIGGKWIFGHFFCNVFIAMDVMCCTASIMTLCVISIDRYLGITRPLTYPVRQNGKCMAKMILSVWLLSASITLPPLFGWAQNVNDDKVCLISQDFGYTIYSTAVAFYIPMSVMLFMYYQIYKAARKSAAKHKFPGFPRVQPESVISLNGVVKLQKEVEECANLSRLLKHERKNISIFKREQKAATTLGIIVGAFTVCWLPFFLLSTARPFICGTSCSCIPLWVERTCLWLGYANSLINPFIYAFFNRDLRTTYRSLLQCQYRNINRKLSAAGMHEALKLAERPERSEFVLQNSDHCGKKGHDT

Columns and labels:
[1] = target: 5-hydroxytryptamine receptor 1A (Homo sapiens, UniProt P08908)
[2] = target: T1, 5-hydroxytryptamine receptor 2C (Rattus norvegicus, UniProt P08909)
T1 sequence (P08909 whole entry): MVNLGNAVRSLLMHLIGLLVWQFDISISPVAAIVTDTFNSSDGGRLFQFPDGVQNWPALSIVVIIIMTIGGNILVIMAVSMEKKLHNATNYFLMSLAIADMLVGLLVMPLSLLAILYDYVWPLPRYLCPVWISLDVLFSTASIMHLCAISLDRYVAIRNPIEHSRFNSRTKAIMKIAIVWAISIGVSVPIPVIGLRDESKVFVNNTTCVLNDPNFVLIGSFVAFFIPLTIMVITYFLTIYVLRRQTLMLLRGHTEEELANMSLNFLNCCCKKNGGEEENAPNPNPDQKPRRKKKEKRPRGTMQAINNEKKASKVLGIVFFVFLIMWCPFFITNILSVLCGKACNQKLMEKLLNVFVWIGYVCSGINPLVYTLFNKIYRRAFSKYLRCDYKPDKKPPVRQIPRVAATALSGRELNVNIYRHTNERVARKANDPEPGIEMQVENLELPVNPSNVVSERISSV

[3] = target: 5-hydroxytryptamine receptor 2B (Rattus norvegicus, UniProt P30994)
[4] = target: 5-hydroxytryptamine receptor 1D (Canis lupus familiaris, UniProt P11614)
[5] = target: 5-hydroxytryptamine receptor 6 (Rattus norvegicus, UniProt P31388)
[6] = target: 5-hydroxytryptamine receptor 5B (Rattus norvegicus, UniProt P35365)
[7] = target: 5-hydroxytryptamine receptor 2A (Rattus norvegicus, UniProt P14842)
[8] = target: 5-hydroxytryptamine receptor 7 (Rattus norvegicus, UniProt P32305)

**Q.** For `CNS(=O)(=O)Cc1ccc2[nH]cc(CCN(C)C)c2c1` [Sumax], which Ki [1] is on record?
**A.** 1020 nM

**Q.** Which Ki [2] does the source give for `COc1cc(CC(C)N)c(OC)cc1Br` (stereo not drawn) [2-(4-Bromo-2,5-dimethoxy-phenyl)-1-methyl-ethylamine((-)-DOB)] here?
**A.** 60.2 nM

**Q.** With `COc1ccc2[nH]cc(CCN)c2c1` [tryptamine, 5-Methoxy] as the compound, how does the Ki [3] read?
**A.** 0.00707 µM

**Q.** What about the Ki [4] of the same compound?
**A.** 6.3 nM

**Q.** With `CSc1ccc2c(c1)C(N1CCN(C)CC1)Cc1ccccc1S2` (stereo not given) [methanesulfonic acid;1-methyl-4-(3-methylsulfanyl-5,6-dihydrobenzo[b][1]benzothiepin-5-yl)piperazine] as the compound, how does the Ki [5] read?
**A.** 1.81 nM and 0.38 nM

**Q.** And the Ki [6]?
**A.** 145 nM and 43.6 nM

**Q.** Which results are given for `O=C(CCCN1CCC2(CC1)C(=O)NCN2c1ccccc1)c1ccc(F)cc1` [8-[4-(4-fluorophenyl)-4-oxidanylidene-butyl]-1-phenyl-1,3,8-triazaspiro[4.5]decan-4-one]?
**A.** Ki [3]: > 10 µM and 3.31 µM; Ki [2]: 2140 nM and 1050 nM

**Q.** Which results are given for `CCN(CC)C(=O)[C@@H]1C=C2c3cccc4[nH]cc(c34)C[C@H]2N(C)C1` [(4R,7R)-N,N-diethyl-6-methyl-6,11-diazatetracyclo[7.6.1.0^{2,7}.0^{12,16}]hexadeca-1(16),2,9,12,14-pentaene-4-carboxamide]?
**A.** Ki [7]: 7.07 nM and 12 nM; Ki [8]: 200 nM
